Reference: patent publication US11400035B2, “Preservative mixture” (Symrise AG, priority 2016, dated 2022)

Assay: General solubility of 4-isopropyl-3-methyl-phenol in different hydrophilic solvents, storage at 5° C. Note: key: (++++) fully dissolved; (++) dissolved, but moderate recrystallisation after 48 h at 5° C; (+) dissolved, but strong recrystallisation after 48 h at 5° C; (#) not dissolved.
Assay type: physicochemical
Settings: stored at 5° C.

## Hexylene glycol
Concentration 36 % b.w.
  Solubility of 4-isopropyl-3-methyl-phenol in different hydrophilic solvents: ++
Concentration 40 % b.w.
  Solubility of 4-isopropyl-3-methyl-phenol in different hydrophilic solvents: +
Concentration 46 % b.w.
  Solubility of 4-isopropyl-3-methyl-phenol in different hydrophilic solvents: +
Concentration 47 % b.w.
  Solubility of 4-isopropyl-3-methyl-phenol in different hydrophilic solvents: +
Concentration 50 % b.w.
  Solubility of 4-isopropyl-3-methyl-phenol in different hydrophilic solvents: +
